Experimental data reported in PubChem BioAssay AID371 (SRMLSC, 2006).
The list shows a part of the results, in another mix than the full data. The source made the active and inactive calls.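 How the source made its calls: active means mean growth inhibition over the two runs of 50% or more; inactive means mean growth inhibition under 50%.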

assay: A549 NSCLC cell proliferation inhibitors – ATP luminescence, human non-small cell lung line, primary screen (AID 371); details: at 10 µM, stronger effect = higher value;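 further: compound exposure lasted 72 h before the ATP read; 0% = untreated cell signal and 100% = no luminescence left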

SMILES	growth inhibition
CCN(CC)CC(O)COC(=O)C(O)(c1ccccc1)C1CCCCC1 (stereo unspecified)	inactive: 6.69%
